Molecules are shown by their SMILES.

Data on 1 compound can be found in patent US20060135458A1, “Antiviral oligonucleotides” (priority 2002, published 2006).

This series deals with Hep2 cells.

`NC(=O)c1ncn([C@@H]2O[C@H](CO)[C@@H](O)[C@H]2O)n1` [Ribavirin]: the “toxicity in Hep2 cells” value was “significantly toxic”. The same compound showed a therapeutic index (human, 7 days) of 2.08.
